Test [1] concerns the target Cytochrome P450 3A7 (Homo sapiens) (UniProt P24462). The test can be described thus: Cytochrome P450 family 3 subfamily A member 7 (CYP3A7) small molecule antagonists: luciferase qHTS assay (AID 1963596; further: on the % scale 0 is the no-effect control and ±100 the full control effect; nearly all actives have a fitted effect of over 40% in size). Conditions: P450-Glo CYP3A7 enzyme luminescence, 1 h; at 57.4 µM (top of the series) unless noted. Summed up:
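Luminescence from luciferin released by CYP3A7 from a proluciferin substrate, read 20 min after detection reagent. Compound and enzyme-substrate mix sat 10 min before NADPH regeneration solution; reaction ran 1 h at room temperature.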
(In general: qHTS replaces the single test concentration by a dilution series.)

The chains behind the UniProt entries cited, without tags or fusion partners.
UniProt P24462, whole entry: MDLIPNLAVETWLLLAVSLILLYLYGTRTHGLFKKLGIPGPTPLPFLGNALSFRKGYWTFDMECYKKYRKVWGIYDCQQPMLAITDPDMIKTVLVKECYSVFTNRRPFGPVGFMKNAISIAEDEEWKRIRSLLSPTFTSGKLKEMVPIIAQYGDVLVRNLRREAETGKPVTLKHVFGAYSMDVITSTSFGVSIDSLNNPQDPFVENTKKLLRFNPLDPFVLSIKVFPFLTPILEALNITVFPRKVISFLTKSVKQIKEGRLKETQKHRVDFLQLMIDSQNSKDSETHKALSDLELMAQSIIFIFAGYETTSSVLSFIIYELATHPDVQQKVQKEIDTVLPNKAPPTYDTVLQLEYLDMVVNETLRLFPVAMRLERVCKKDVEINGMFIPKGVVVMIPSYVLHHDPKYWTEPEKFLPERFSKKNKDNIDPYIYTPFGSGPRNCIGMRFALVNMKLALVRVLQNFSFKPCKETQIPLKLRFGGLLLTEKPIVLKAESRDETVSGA

Test [2] is described as follows: Viability qHTS for spleen associated tyrosine kinase inhibitor (SYKi) naive MV4-11 cells (AID 1963823). Further: nearly all actives have a fitted effect of over 40% in size. Particulars: MV4-11 AML viability, CellTiter-Glo luminescence, 72 h; at 45 µM (top of the series) unless noted. Summed up:
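Read-out: CellTiter-Glo luminescence. Exposure: 72 hr, 37 C, 5% CO2, 95% humidity. Cells: MV4-11 without SYK inhibitor history, 500/well, qHTS format.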

Test [3] is described as follows: Viability qHTS for spleen associated tyrosine kinase inhibitor (SYKi) drug resistant MV4-11 cells (AID 1963824). Further: nearly all actives have a fitted effect of over 35% in size. Further: potency means the concentration at half of the fitted maximal effect. Conditions: SYKi-resistant MV4-11 viability, CellTiter-Glo, 72 h. Summed up:
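CellTiter-Glo luminescence, read 10 min after reagent addition, reports viability after a 72 hr compound exposure. Cells are an MV4-11 line made resistant to SYK inhibition, seeded at 500 per well onto compound-containing plates.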

The nature of test [4]: Cellular viability qHTS for adrenocortical cancer (ACC) cell line NCI-H295R (AID 1963990).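 Further: 0% = DMSO only wells and -100% = full killing with cytotoxic reference compound; nearly all actives have a fitted effect of over 60% in size.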 Particulars: CellTiter-Glo ATP luminescence, 48 h; at 46.1 µM (top of the series) unless noted. Put shortly: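 Readout: CellTiter-Glo luminescence, 20 min RT. Exposure: 48 h, 37C/5% CO2. Cells: NCI-H295R, ITS-DMEM serum-free. Range: up to 46 uM. Analysis: 4PL fit, IC50 plus efficacy.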

A short description of test [5]: Cellular viability qHTS for adrenocortical cancer (ACC) cell line SW-13 (AID 1963989).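 Further: cells grown in serum-free medium with ITS supplement; on the % scale 0 is the no-effect control and ±100 the full control effect; nearly all actives have a fitted effect of over 65% in size.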 Particulars: SW-13 ACC cells viability, CellTiter-Glo, 48 h; active compounds read low. Summed up: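 Compound titrations (up to 46 uM final, in DMSO) were applied to SW-13 cells for 48 h at 37C/5% CO2. Reading used CellTiter-Glo after 20 min at room temperature; fitted curves yielded IC50 and efficacy.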

The nature of test [6]: Quantitative highthroughput screen to assess conditional lethalithy of NOMO1 cells grown in RPMI1640 with untreated serum (RPMI+s) (AID 1963876).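 Further: 100% = DMSO wells and 0% = empty wells without cells; nearly all actives have a fitted effect of over 35% in size.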 Particulars: NOMO1 AML cells in RPMI+serum, CellTiter-Glo viability, 48 h; at 23.2 µM (top of the series). Summed up: (§1)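 Each medium arm—HPLM with 10% dialyzed FBS, or RPMI1640 with 5 mM glucose and 10% untreated or dialyzed FBS—was screened against an 11-point, 3-fold compound titration for 48 h at 37 °C, with CellTiter-Glo luminescence as endpoint.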
(In ATP-based viability assays light output follows the ATP content of the culture.)

The nature of test [7]: Quantitative highthroughput screen to assess conditional lethalithy of NOMO1 cells grown in RPMI1640 with dialyzed fetal bovine serum (RPMI+ds) (AID 1963877).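 Further: 100% = DMSO control wells and 0% = empty wells; nearly all actives have a fitted effect of over 30% in size.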 Particulars: NOMO1 in RPMI+dialyzed FBS viability, ATP luminescence, 48 h; at 23.2 µM (top of the series). Summed up: as §1
Test [8] is described as follows: Quantitative highthroughput screen to assess conditional lethalithy of NOMO1 cells grown in Human Plasma-Like Medium with dialyzed fetal bovine serum (HPLM+ds) (AID 1963878).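 Further: 100% = DMSO wells and 0% = empty wells on each plate; nearly all actives have a fitted effect of over 35% in size.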 Particulars: NOMO1 AML cells in HPLM+ds, CellTiter-Glo viability, 48 h; at 23.2 µM (top of the series). Put shortly:
as §1

A short description of test [9]: Quantitative highthroughput screen to assess conditional lethalithy of P12 Ichikawa cells grown in Human Plasma-Like Medium with dialyzed fetal bovine serum (HPLM+ds) (AID 1963879). Further: nearly all actives have a fitted effect of over 35% in size. Conditions: ATP luminescence, 48 h; at 23.2 µM (top of the series). Summed up:
as §1

Test [10] is described as follows: Quantitative highthroughput screen to assess conditional lethalithy of P12 Ichikawa cells grown in RPMI1640 with dialyzed fetal bovine serum (RPMI+ds) (AID 1963880). Conditions: ATP luminescence, 48 h; at 23.2 µM (top of the series). Put shortly:
as §1

Test [11] is described as follows: Quantitative highthroughput screen to assess conditional lethalithy of P12 Ichikawa cells grown in RPMI1640 with untreated serum (RPMI+s) (AID 1963881). Conditions: ATP luminescence, 48 h; at 23.2 µM (top of the series). Summed up: as §1
A short description of test [12]: Quantitative highthroughput screen to assess conditional lethalithy of SEM cells grown in Human Plasma-Like Medium with dialyzed fetal bovine serum (HPLM+ds) (AID 1963882). Further: nearly all actives have a fitted effect of over 35% in size. Particulars: SEM B-ALL cells in HPLM+ds, CellTiter-Glo viability, 48 h; at 23.2 µM (top of the series). Put shortly:
as §1

Test [13] can be described thus: Quantitative highthroughput screen to assess conditional lethalithy of SEM cells grown in RPMI1640 with unreated serum (RPMI+s) (AID 1963883). Conditions: SEM B-ALL cells, CellTiter-Glo viability, 48 h; at 23.2 µM (top of the series). Summed up: as §1
A short description of test [14]: Quantitative highthroughput screen to assess conditional lethalithy of SEM cells grown in RPMI1640 with dialyzed fetal bovine serum (RPMI+ds) (AID 1963884). Particulars: SEM B-ALL cells, RPMI+dialyzed FBS, CellTiter-Glo viability, 48 h; at 23.2 µM (top of the series). Summed up:
as §1

The entries are a selection whose mix differs from that of the whole data set. Results filed as inconclusive are left out. Some salts and complexes are drawn in separate pieces, as the source files them; their charges need not balance. Calls of active or inactive are those of the source. The call rests on the fitted dose curve; in most records, active means well fitted curve in the direction sought with a large enough effect; inconclusive means small, poorly fitted or top-dose-only effect, or another doubt; inactive means no such curve, though single readings can be large; an effect the other way counts as inactive or inconclusive.

`OCCSCCO`: in test [1], the activity change, negative = inhibition was inactive: -4.06%. Besides, the viability (% of control) in [2] is inactive: 101%. In addition, in test [3], the Potency result was “inactive”. Also, the activity change, negative = viability loss in test [4] is inactive: -3.55%.

For `O=[N+]([O-])c1cccc([N+](=O)[O-])c1`, the activity change, negative = inhibition in test [1] is inactive: 135% [at 115 µM]. Moreover, the viability (% of control) in test [2] was inactive: 77.4% [at 91.9 µM]. In test [5], the activity (max response) was inactive: -6.97%.

Consider `C/C1=C2N=C(/C=C3N=C(/C(C)=C4\N=C(C(CC(N)=O)C4(C)CCC(=O)NCC(C)OP(=O)([O-])OC4C(CO)OC(n5cnc6cc(C)c(C)cc65)C4O)C4(C)N=C1C(CCC(N)=O)C4(C)CC(N)=O)C(CCC(N)=O)C\3(C)C)C(CCC(N)=O)C/2(C)CC(N)=O.[C-]#N.[Co]` (stereo unspecified), for which the viability (% of control) in [2] was inactive: 67.2% [at 17.3 µM]. Moreover, the Potency entry in test [3] was “inactive”.

Turning to `CC1=C2[N-][C@@](C)([C@@H]3N=C(C(C)=C4N=C(C=C5N=C1[C@@](C)(CC(N)=O)[C@H]5CCC(N)=O)C(C)(C)[C@H]4CCC(N)=O)[C@](C)(CCC(=O)NC[C@@H](C)OP(=O)([O-])O[C@H]1[C@@H](O)[C@@H](n4cnc5cc(C)c(C)cc54)O[C@H]1CO)[C@H]3CC(N)=O)[C@@](C)(CC(N)=O)[C@@H]2CCC(N)=O.[C-]#N.[Co+3]`, the viability (in general, a read-out of living cells in per cent, often relative to untreated cells) was inactive: 76.9% in test [6]; inactive: 88.5% in [7]; inactive: 87.2% in test [8]; inactive: 87.4% in test [9]; inactive: 93.1% in test [10]; inactive: 86.5% in test [11]. Further, the values for the viability in test [12], in test [13] and in test [14] were inactive: 90.9%, inactive: 87.8% and inactive: 84.5%, respectively.

Regarding `C/C1=C2/N=C(C(CC(N)=O)C2(C)CCC(=O)NCC(C)OP(=O)([O-])OC2C(CO)OC(n3cnc4cc(C)c(C)cc43)C2O)C2(C)N=C(/C(C)=C3N=C(/C=C4N=C1C(CCC(N)=O)C\4(C)C)C(CCC(N)=O)C/3(C)CC(N)=O)C(CCC(N)=O)C2(C)CC(N)=O.[C-]#N.[Co]` (stereo unspecified), in [2], the viability (% of control) is inactive: 78.3%. In addition, the Potency in [3] is active: 20.9 µM. Moreover, the activity change, negative = viability loss in [4] is inactive: -26.6%.

As for `CCOP(=O)(CC)Oc1ccc([N+](=O)[O-])cc1` (stereo unspecified), the activity change, negative = inhibition in test [1] is inactive: -2.98%. Also, in test [5], the activity (max response) is inactive: -6.26%. For the same compound, the activity change, negative = viability loss in test [4] is inactive: -13%.

As for `C/C1=C2N=C(/C=C3N=C(/C(C)=C4\[N-][C@@](C)([C@@H]5N=C1[C@](C)(CCC(=O)NC[C@@H](C)OP(=O)([O-])O[C@H]1[C@@H](O)[C@@H](n6cnc7cc(C)c(C)cc76)O[C@@H]1CO)[C@H]5CC(N)=O)[C@@](C)(CC(N)=O)[C@@H]4CCC(N)=O)[C@@](C)(CC(N)=O)[C@@H]\3CCC(N)=O)C(C)(C)[C@@H]/2CCC(N)=O.[C-]#N.[Co+3]`, the activity change, negative = inhibition in [1] is inactive: 132%. Also, in [2], the viability (% of control) is inactive: 55.6%. Besides, in test [3], the Potency entry was “inactive”. For the same compound, the activity change, negative = viability loss in [4] is inactive: -28.1%.

`Cc1cccc([N+](=O)[O-])c1[N+](=O)[O-]`: the activity change, negative = inhibition in [1] was inactive: 32.1% [at 115 µM]. The activity (max response) in [5] was inactive: 11.5%. Besides, in [4], the activity change, negative = viability loss is inactive: 0.663% [at 92.7 µM].

The record behind these values is PubChem BioAssay (NCATS).
